This assay has as its target T1, C5a receptor (Homo sapiens, UniProt P21730).
T1 construct: followed by a 20 μL aliquot of neutrophil membrane; endogenous in cells
T1 sequence (P21730 1-350): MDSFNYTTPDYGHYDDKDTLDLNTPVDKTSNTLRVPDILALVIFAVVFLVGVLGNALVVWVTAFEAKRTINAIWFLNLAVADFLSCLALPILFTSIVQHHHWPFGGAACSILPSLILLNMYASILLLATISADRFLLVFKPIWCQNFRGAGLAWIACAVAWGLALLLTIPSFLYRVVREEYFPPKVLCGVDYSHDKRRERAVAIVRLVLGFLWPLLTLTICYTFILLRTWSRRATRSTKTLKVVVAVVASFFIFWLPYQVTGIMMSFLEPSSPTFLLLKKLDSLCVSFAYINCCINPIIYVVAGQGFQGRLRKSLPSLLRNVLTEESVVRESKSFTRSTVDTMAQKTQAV
Put plainly: Competition binding against 125I-labeled intact C5a on human neutrophil (PMN) membranes. An excerpt:
The affinity of these peptides is shown, for example, by radiolabeling intact C5a, and using the unlabeled peptide to compete the labeled C5a from C5a receptor binding sites on cellular membranes. Preparations of polymorphonuclear leukocytes (PMN's) are known to express the C5a receptor, (inhibition of the chemotactic response to C5a of this type of cell is one desirable utility for compounds identified by the instant assay). One method for preparing these membranes is described by Rollins, T. E. et al., [J. Biol. Chem. 264:520-526 (1988); see also U.S. Pat. No. 5,177,190, herein incorporated by reference as a method for isolating and purifying C5a receptor]. Briefly, this involves isolating PMN's in large quantity, disrupting these cells and obtaining the membrane fraction by centrifugation. […]
Binding is initiated by an addition of 20 μL of PMN membrane (typically 0.5 μg of protein) to each tube. […] Non-specific background was determined by inclusion of a 100-fold excess of unlabeled C5a.
The percent inhibition is calculated according to the following formula: [formula]
Iodination of C5a was carded out with the use of chloramine T. (Rollins, T.E., and Springer, M.S. (1985) J. Biol. Chem. 260, 7157-7160). […] Concentrations of C5a were determined by amino acid analysis and by RIA (Amersham Corp.). […]

The term IC50 denotes the concentration needed to halve the response being measured. The compound `CN[C@@H](Cc1ccccc1)C(=O)N[C@@H](CCCCN)C(=O)N1CCC[C@H]1C(=O)N[C@H](CC1CCCCC1)C(=O)N[C@@H](Cc1c[nH]c2ccccc12)C(=O)N[C@H](CCCN=C(N)N)C(=O)O` [C089] gave a half-maximal inhibitory concentration (IC50) of 0.07 µM.
